Assay results from publication PMC4894417, “Quantitative High-Throughput Profiling of Environmental Chemicals and Drugs that Modulate Farnesoid X Receptor” (Scientific Reports, 2014).
Entries after “also recorded” stand apart in the source; their conditions may differ. Blank lines part the entries; values can stand above or below the molecule they belong to.

Protein sequences, listed by entry. Tags and fused reporters are not part of them. Chains listed by the source or under a name are the forms on record and can include a tag or linker.
UniProt Q96RI1, with tags, fused parts or gaps limits assumed: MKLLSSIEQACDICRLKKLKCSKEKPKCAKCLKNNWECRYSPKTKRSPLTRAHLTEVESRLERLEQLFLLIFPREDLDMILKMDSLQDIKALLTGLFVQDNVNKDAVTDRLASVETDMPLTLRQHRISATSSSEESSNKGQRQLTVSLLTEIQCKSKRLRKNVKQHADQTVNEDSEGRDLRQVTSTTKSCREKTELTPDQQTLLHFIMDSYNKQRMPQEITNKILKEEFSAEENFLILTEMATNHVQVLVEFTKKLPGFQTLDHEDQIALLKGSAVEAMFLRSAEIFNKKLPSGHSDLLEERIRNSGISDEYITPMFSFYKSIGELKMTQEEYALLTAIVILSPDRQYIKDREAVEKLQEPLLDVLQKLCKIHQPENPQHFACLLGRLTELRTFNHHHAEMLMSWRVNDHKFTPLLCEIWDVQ

Columns and labels:
human FXR [1] = target: T1, human FXR (Homo sapiens, UniProt Q96RI1); assay: FXR-bla reporter gene assay, antagonist mode (CDCA-induced transactivation)
human FXR [2] = target: T1, human FXR; assay: FXR-bla reporter gene assay, agonist mode (qHTS)

FXR antagonist mode IC50 (human FXR [1]): Inactive
FXR agonist activity (human FXR [2]): activated; also recorded: an agonist
FXR agonist mode Efficacy (human FXR [2]): 30 ± 9
SMILES: CCOC(=O)C1=C(C)NC(C)=C(C(=O)OC)C1c1cccc(Cl)c1Cl (stereo not drawn) [Felodipine]

SMILES: C[C@]12CC[C@@H]3c4ccc(O)cc4C[C@@H](CCCCCCCCC[S+]([O-])CCCC(F)(F)C(F)(F)F)[C@H]3[C@@H]1CC[C@@H]2O (stereo partly drawn) [Fulvestrant]
FXR antagonist mode Efficacy (human FXR [1]): 50 ± 27
FXR agonist mode EC50 (human FXR [2]): Inactive

IC50 (human FXR [1]): 4.07 ± 0.28 µM
SMILES: CC(=O)[C@]1(O)Cc2c(O)c3c(c(O)c2[C@@H](O[C@H]2C[C@H](N)[C@H](O)[C@H](C)O2)C1)C(=O)c1ccccc1C3=O [Idarubicin]
